Experimental data taken from PMC9227323, “The Potential of Cell-Penetrating Peptides for mRNA Delivery to Cancer Cells” (Pharmaceutics, 2022).

Experiment: Size and zeta-potential of CPP/mRNA complexes by DLS
Format: physicochemical

What does the source list for Penetratin?
PDI (CPP/mRNA complex at the N/P ratio of Table 2, DLS, distilled water): 0.29; Zeta Potential (CPP/mRNA complex at the N/P ratio of Table 2, Zetasizer Nano ZS, distilled water): +15.7 (±1.0) mV; N/P Ratio (lowest N/P ratio to form the nanocomplexes) (CPP/mRNA complex, amine groups of peptide to phosphate groups of mRNA): 13.6; kind of particles formed with mRNA (N/P ratios increased to more than 10): irregular large particles
